Protein sequences, listed by entry. Tags and fused reporters are not part of them.
ATP-dependent Clp protease proteolytic subunit (Bacillus subtilis (strain 168)), P80244, UniProt P80244, whole entry, looked up: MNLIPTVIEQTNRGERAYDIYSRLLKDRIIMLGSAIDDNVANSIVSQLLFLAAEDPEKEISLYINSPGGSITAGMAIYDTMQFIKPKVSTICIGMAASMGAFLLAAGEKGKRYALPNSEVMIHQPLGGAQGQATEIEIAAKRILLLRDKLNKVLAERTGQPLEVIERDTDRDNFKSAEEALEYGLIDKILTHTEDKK

# ClpP mod = qHTS Assay for Activators of ClpP; ATP-dependent Clp protease proteolytic subunit (Bacillus subtilis (strain 168)), P80244; purified B. subtilis ClpP, FRET peptide cleavage, 20 min; Potency, µM (doses to about 57.5 µM), for inactives: at the highest dose activity change, negative = active; 1.9% of 340,000 active; active = well fitted falling curve with a large enough effect; inconclusive = small, poorly fitted or top-dose-only effect; inactive = no such curve, though single readings can be large or run the other way; also: potency is read from the fitted curve at half-maximal effect; the source files actives as falling curves though it sought activators and does not explain the sign; nearly all actives have a fitted effect of over 65% in size
#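 ClpP 10 microg/mL final, pH 8 Tris/KCl buffer with BSA, glycerol, Tween-20; compound pinned in; FRET-FV substrate; RT 20 min; Ex320/Em430; ΔFRET vs ADEP 5.8 microM, DMSO, no enzyme.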
# TrxR1 inh = blocks rat thioredoxin reductase 1 | O89049 | Potency, µM (top dose mostly 114 µM), for the others: top-dose activity change, negative = inhibition, usual class: inhibitors | 1% of 390,000 active | recombinant rTrxR1, NADPH fluorescence consumption, selenite substrate; also: potency is read from the fitted curve at half-maximal effect; % is scaled to controls: 0 for no effect and ±100 for the full control effect; nearly all actives have a fitted effect of over 65% in size
#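 Rat TrxR1 (90 nM in the dispensed reagent) was pre-reduced with 400 uM NADPH for 5 min at room temperature, then incubated with compound for 15 min. After 400 uM selenite was added, NADPH fluorescence (Ex 340/Em 450 nm) was followed for 8 min.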
# Apoferritin bind = candidate novel general anesthetic via apoferritin binding; P02791; apoferritin/1-aminoanthracene competitive binding, fluorescence; Potency, µM (titrated, usually from 77.5 µM), for inactives: at the top dose activity change, negative = displacement, hits mostly inhibitors; 0.074% of 350,000 active; also: potency is read from the fitted curve at half-maximal effect; % is scaled to controls: 0 for no effect and ±100 for the full control effect; nearly all actives have a fitted effect of over 20% in size
#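 Apoferritin-based anesthetic binding model; compound displacement of fluorescent 1-AMA measured as endpoint fluorescence after 10 minutes at room temperature, scaled to free-ligand and complex controls.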
# miR-21 reporter = miR-21 reporter, rising signal | HeLa miR-21 FLuc reporter, luciferase, 48 h | Potency, µM (top dose mostly 38.3 µM), inactives show at the top dose reporter change, positive = more light | 340,000 tested, under 10 active | AID 2288; active = well fitted rising curve with a large enough effect; inconclusive = small, poorly fitted or top-dose-only effect; inactive = no such curve, though single readings can be large or run the other way;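 further: % of control where 0% means no effect; miR-21 action dims this reporter so a rising signal means less miR-21 action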
#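 HeLa miR-21-FLuc reporter line, endogenous miR-21; 2000 cells/well in DMEM/10% FBS; compound titration up to ~40uM final, 48 h, 37 degree Celsius; luciferase detection reagent, 15 min lysis, CCD luminescence.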
# TrxR1 substrate = rat thioredoxin reductase 1 substrate activity; Potency, µM (highest dose often 114 µM), without a hit: at the highest dose activity change, negative = substrate turnover; purified TrxR1 substrate turnover, NADPH consumption readout; 0.01% of 390,000 active; O89049; also: potency is read from the fitted curve at half-maximal effect; % is scaled to controls: 0 for no effect and ±100 for the full control effect; nearly all actives have a fitted effect of over 50% in size
#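 Rat TrxR1, dispensed at 90 nM, was prereduced with 400 uM NADPH (final) for 5 min at ~22 deg C, then incubated with compound 15 min before 400 uM selenite. A first-read NADPH fluorescence drop versus no-compound background flagged substrates.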
# An asterisk follows results filed as active; ? = inconclusive; . = no result; [ ] = remark or other dose. In the library only some 2.5% were active in any assay of this set; here they are far more common. Unless noted, calls follow the shape of the dose curve; as a rule, active = well fitted curve in the direction sought with a large enough effect; inconclusive = small, poorly fitted or top-dose-only effect, or another doubt; inactive = no such curve, though single readings can be large; an effect the other way counts as inactive or inconclusive.
ClpP mod	TrxR1 inh	Apoferritin bind	miR-21 reporter	TrxR1 substrate	mol
?	25µM*	-6%	4%	-9%	CC1=NN(Cc2ccccc2)C(=O)C1C(c1ccc(Cl)cc1)C(C#N)C#N (configuration not stated)
-1%	?	-21%	4%	0%	CC1=NN(Cc2ccccc2)C(=O)C1C(c1ccccc1)C(C#N)C#N (configuration not stated)
32µM*	-6%	-7%	-56%	4%[57.1 µM]	Cc1ccc(OC(=O)COc2ccccc2)c(-n2nc3ccccc3n2)c1
28µM*	12%	-12%	-17%	47%	O=C(OCC#CCSc1nnc(-c2cccc3ccccc23)o1)c1ccco1
28µM*	-8%	-9%	-3%	31%	COc1ccccc1-n1c(-c2ccc(NS(C)(=O)=O)cc2)n[nH]c1=S
-7%	32%	34%	2%	12%	COC(=O)c1cc2oc3ccccc3c2n1CC(=O)Nc1ccc(C)c(F)c1
1%	-2%[57.1 µM]	-18%	-1%	-4%[57.1 µM]	COC(=O)c1sccc1S(=O)(=O)N1CCN(c2cccc(C)c2)C(C)C1 (configuration not stated)
2%	31%[57.1 µM]	-5%	-4%	-10%[57.1 µM]	Cc1ccccc1C(=O)Nc1cc(S(=O)(=O)N2CCCCC2)ccc1N1CCN(C)CC1

# (listing goes on)
ClpP mod	TrxR1 inh	Apoferritin bind	miR-21 reporter	TrxR1 substrate	mol
20µM*	-2%	-15%	-3%	-9%	CN1CCN(c2ccc(S(=O)(=O)N3CCCCC3)cc2NC(=O)c2ccc3ccccc3c2)CC1
16µM*	17%	.	.	-1%	CCN1CCN(c2ccc(S(=O)(=O)N3CCCCC3)cc2NC(=O)c2cc3ccccc3o2)CC1
-3%	-10%	7%	-8%	-5%	Cc1ccccc1NC(=O)Cn1c(=O)n(Cc2ccco2)c(=O)c2cccnc21
1%	20%[57.1 µM]	-4%	13%	0%[57.1 µM]	CCCCSCCCNC(=O)c1c[nH]c2ccc(S(=O)(=O)Nc3cccc(OC)c3)cc2c1=O
.	?	-10%	-6%	9%	COc1ccc(-c2nc(CS(=O)CC(=O)NCc3ccc(Cl)cc3)c(C)o2)cc1OC (configuration not stated)
4%	50µM*	-16%	-9%	9%	COc1ccc(-c2nc(CS(=O)CC(=O)NCc3ccc(C)cc3)c(C)o2)cc1OC (configuration not stated)
5%	-19%	-12%	-17%	8%	COc1ccc(CNC(=O)CS(=O)Cc2nc(-c3ccc(OC)c(OC)c3)oc2C)cc1 (configuration not stated)
32µM*	19%	1%	-1%	20%	CCCN(CCC)CCNC(=O)CS(=O)Cc1nc(-c2ccc(OC)c(OC)c2)oc1C (configuration not stated)

# Following part.
ClpP mod	TrxR1 inh	Apoferritin bind	miR-21 reporter	TrxR1 substrate	mol
28µM*	-6%	-2%	4%	9%	COc1ccc(-c2nc(CS(=O)CC(=O)NCc3ccc(F)cc3)c(C)o2)cc1OC (configuration not stated)
-2%	37%[11.4 µM]	24%	-7%	12%	Cc1cccc(N2CCN(C(=O)Cn3c(=O)c4cccn4c4ccc(F)cc43)CC2C)c1 (configuration not stated)
5%	37%	45%	-18%	26%	O=C(NCc1ccccc1Cl)c1cc2c(s1)-c1ccc(Cl)cc1SC2
7.1µM*	45%	0%	-12%	29%	COc1ccc2nc(SCc3ccccc3C)nc(C)c2c1
25µM*	-2%	-7%	-91%	14%	COc1ccc2nc(SCc3cccc(C)c3)nc(C)c2c1
28µM*	0%	-1%	1%	7%	COc1ccc2nc(SCCOC(=O)Nc3ccc(Cl)cc3)nc(C)c2c1
4%	-5%	-8%	-8%	-4%	Cc1ccc2nc(SCc3cccc([N+](=O)[O-])c3)nc(C)c2c1
28µM*	-4%	-1%	-14%	111%	COc1ccc2nc(SCC(=O)O)nc(C)c2c1

# Only ClpP mod and TrxR1 substrate, for some of the entries so far:
compound	ClpP mod	TrxR1 substrate
COc1ccc(CNC(=O)CS(=O)Cc2nc(-c3ccc(OC)c(OC)c3)oc2C)cc1 (configuration not stated)	5%	8%
CCCN(CCC)CCNC(=O)CS(=O)Cc1nc(-c2ccc(OC)c(OC)c2)oc1C (configuration not stated)	32µM*	20%

# Next results.
ClpP mod	TrxR1 inh	Apoferritin bind	miR-21 reporter	TrxR1 substrate	mol
-1%	?	-4%	6%	1%	COc1ccc(N2CCN(CCCNC(=O)c3cnn(-c4ccc(C)cc4)c3-n3cccc3)CC2)cc1
0%	17%	2%	10%	-3%	COc1ccc(-c2noc(CSc3nnc(Cc4ccccc4)n3-c3ccc(F)cc3)n2)cc1
28µM*	-15%	-12%	-3%	-2%	COc1ccc2cc(S(=O)(=O)NC3CC(C)(C)NC(C)(C)C3)ccc2c1
.	10%	2%	1%	-5%	COc1ccc(S(=O)(=O)NC2CC(C)(C)NC(C)(C)C2)cc1C(C)C
-1%	21%[57.1 µM]	39%	2%	7%[57.1 µM]	COc1ccccc1NC(=O)c1sc2ncn(Cc3ccccc3Cl)c(=O)c2c1C
25µM*	6%[57.1 µM]	-19%	1%	7%[57.1 µM]	CCC1=NN2C(=N)/C(=C/c3cc(C)n(Cc4ccccc4)c3C)C(=O)N=C2S1
.	12%[11.4 µM]	17%	-1%	8%[11.4 µM]	Cc1cc(/C=C2\C(=N)N3N=C(C(C)C)SC3=NC2=O)c(C)n1Cc1ccccc1
16µM*	4%[57.1 µM]	147%	-10%	143%[57.1 µM]	Cc1cccn2c(=O)c3cc(C(N)=S)c(=N)n(CCCOC(C)C)c3nc12

# Other results.
ClpP mod	TrxR1 inh	Apoferritin bind	miR-21 reporter	TrxR1 substrate	mol
28µM*	73%	93%	21%	354%	CCOCCCn1c(=N)c(C(N)=S)cc2c(=O)n3cccc(C)c3nc21
16µM*	4%[57.1 µM]	-14%	-21%	-8%	CC1CC(C)(C)CC2(C1)NC(=S)N(c1ccccc1)N2 (configuration not stated)
-1%	-15%	-19%	-24%	-8%	CC1CCCC2(C1)NC(=S)N(c1ccccc1)N2 (configuration not stated)
-1%	-16%[57.1 µM]	-18%	-6%	-4%[57.1 µM]	COc1ccc(S(=O)(=O)n2nc(OC(=O)c3ccccc3)cc2N)cc1
-4%	28µM*	-9%	-1%	2%	COc1ccc(S(=O)(=O)n2nc(OC(=O)c3ccncc3)cc2N)cc1
0%	71µM*	-9%	-20%	-7%	CC(=O)CSc1nsc(SCC(C)=O)c1C#N
0%	50µM*	-13%	9%	2%	O=C(c1cc(COc2ccc(F)cc2F)on1)N1CCN(C(=O)c2ccco2)CC1
?	7.9µM*	-1%	-5%	16%	CCSc1nc(-c2ccco2)ccc1C#N

# The results go on.
ClpP mod	TrxR1 inh	Apoferritin bind	miR-21 reporter	TrxR1 substrate	mol
10µM*	?	-19%	5%	24%	N#Cc1ccc(-c2ccco2)nc1SCc1ccccc1
-5%	-66%	-10%	-54%	-18%[57.1 µM]	c1ccc(CSc2ccc(-c3ccco3)nn2)cc1
-1%	1%	-18%	14%	-10%	Cc1ccc(Cl)cc1NC(=O)C(=O)NCC(c1cccnc1)N1CCc2ccccc21 (configuration not stated)
1%	1%	-4%	-10%	-2%	OC(COCc1ccccc1)CN1CCc2ccccc2C1 (configuration not stated)
28µM*	11%[57.1 µM]	-11%	-2%	10%[57.1 µM]	COc1ccc(COCC(O)CN2CCc3ccccc3C2)cc1OC (configuration not stated)

# Copied from the results shown for reference:
ClpP mod	TrxR1 inh	Apoferritin bind	miR-21 reporter	TrxR1 substrate	mol
10µM*	?	-19%	5%	24%	N#Cc1ccc(-c2ccco2)nc1SCc1ccccc1
-5%	-66%	-10%	-54%	-18%[57.1 µM]	c1ccc(CSc2ccc(-c3ccco3)nn2)cc1
-1%	1%	-18%	14%	-10%	Cc1ccc(Cl)cc1NC(=O)C(=O)NCC(c1cccnc1)N1CCc2ccccc21 (configuration not stated)
1%	1%	-4%	-10%	-2%	OC(COCc1ccccc1)CN1CCc2ccccc2C1 (configuration not stated)
28µM*	11%[57.1 µM]	-11%	-2%	10%[57.1 µM]	COc1ccc(COCC(O)CN2CCc3ccccc3C2)cc1OC (configuration not stated)

# Screens (PubChem)
